Columns and labels:
[1] = tested on: FaDu; assay: Growth inhibition of FaDu human squamous carcinoma cell line; format: cell-based; conditions: Table 15, continuous (120 hours) exposure
[2] = biological target: CCRF-CEM human leukemia cell folylpolyglutamate synthetase (Homo sapiens, UniProt Q05932); assay: Substrate activity for CCRF-CEM folylpolyglutamate synthetase; format: biochemical; conditions: Table 21
[3] = biological target: L. casei TS (Lacticaseibacillus casei, UniProt P00469); assay: Inhibition of thymidylate synthase (TS), L. casei; format: biochemical, Lactobacillus casei; conditions: Table 13; at the concentration given
[4] = biological target: E-coli thymidylate synthase (ecTS) (Escherichia coli, UniProt P0A884); assay: Inhibition of E. coli thymidylate synthase; format: biochemical; conditions: Table 13; at the concentration given

By UniProt entry, the sequences of proteins in these tests, tags left out. Residues count along the entry.
UniProt Q05932, 43-587 limits assumed: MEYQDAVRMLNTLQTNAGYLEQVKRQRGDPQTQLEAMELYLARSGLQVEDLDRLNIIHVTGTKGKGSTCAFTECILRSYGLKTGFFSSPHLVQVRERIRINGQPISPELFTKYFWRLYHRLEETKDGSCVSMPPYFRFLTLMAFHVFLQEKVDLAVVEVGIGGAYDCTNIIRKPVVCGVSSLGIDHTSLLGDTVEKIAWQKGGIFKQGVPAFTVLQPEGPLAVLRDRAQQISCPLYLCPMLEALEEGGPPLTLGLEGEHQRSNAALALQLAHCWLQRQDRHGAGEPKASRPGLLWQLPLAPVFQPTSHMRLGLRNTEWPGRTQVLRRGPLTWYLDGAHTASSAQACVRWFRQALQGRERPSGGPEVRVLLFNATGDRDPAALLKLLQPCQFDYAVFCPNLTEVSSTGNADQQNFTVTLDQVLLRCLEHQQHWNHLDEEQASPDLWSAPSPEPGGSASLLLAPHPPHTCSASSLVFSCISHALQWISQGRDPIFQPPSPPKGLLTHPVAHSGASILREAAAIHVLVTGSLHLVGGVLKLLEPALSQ
UniProt P00469, whole entry: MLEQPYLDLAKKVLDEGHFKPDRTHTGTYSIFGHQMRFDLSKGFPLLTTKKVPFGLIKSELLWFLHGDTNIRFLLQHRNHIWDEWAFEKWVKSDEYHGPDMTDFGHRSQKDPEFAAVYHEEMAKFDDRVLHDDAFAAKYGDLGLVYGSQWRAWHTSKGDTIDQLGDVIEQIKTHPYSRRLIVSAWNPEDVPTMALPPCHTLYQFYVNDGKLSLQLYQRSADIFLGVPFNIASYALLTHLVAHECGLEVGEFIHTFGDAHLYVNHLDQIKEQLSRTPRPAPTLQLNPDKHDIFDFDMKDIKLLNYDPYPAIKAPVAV
UniProt P0A884, whole entry: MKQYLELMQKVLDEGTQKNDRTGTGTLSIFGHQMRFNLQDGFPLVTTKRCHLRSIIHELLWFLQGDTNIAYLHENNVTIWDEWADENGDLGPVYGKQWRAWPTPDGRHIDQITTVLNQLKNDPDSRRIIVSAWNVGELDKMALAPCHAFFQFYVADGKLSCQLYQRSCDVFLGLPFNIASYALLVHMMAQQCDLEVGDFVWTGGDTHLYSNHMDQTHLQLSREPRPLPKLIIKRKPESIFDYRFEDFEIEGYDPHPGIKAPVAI

## Cc1[nH]c2nc(N)[nH]c(=O)c2c1Sc1ccc(Cl)c(Cl)c1
[1]
  Growth inhibition EC50, FaDu: insoluble

## Nc1nc(N)c2c3c(oc2n1)CN(Cc1ccc(C(=O)N[C@@H](CCC(=O)O)C(=O)O)cc1)CC3
[2]
  Vmax,rel: 0.29 ± 0.05
[2]; substrate for FPGS
  Km: 6.2 µM

## Cc1[nH]c2nc(N)[nH]c(=O)c2c1Sc1ccccc1
[3]
  % in parentheses after the > value, L. Casei TS: 0%
[1]; read-out: Growth inhibition EC50, FaDu
  EC50: > 10 µM
[4]
  % in parentheses after the > value, E. Coli TS: >30 (30%)

— patent US6962920B2, “Pyrimidine derivatives and methods of making and using these derivatives” (Duquesne University of the Holy Ghost, priority 1992, dated 2005)
